# In paper PMC3009643 (BMC Neuroscience, 2010):
# Chains of the proteins cited; added tags and fusions are not shown.
# UniProt P04775, whole entry: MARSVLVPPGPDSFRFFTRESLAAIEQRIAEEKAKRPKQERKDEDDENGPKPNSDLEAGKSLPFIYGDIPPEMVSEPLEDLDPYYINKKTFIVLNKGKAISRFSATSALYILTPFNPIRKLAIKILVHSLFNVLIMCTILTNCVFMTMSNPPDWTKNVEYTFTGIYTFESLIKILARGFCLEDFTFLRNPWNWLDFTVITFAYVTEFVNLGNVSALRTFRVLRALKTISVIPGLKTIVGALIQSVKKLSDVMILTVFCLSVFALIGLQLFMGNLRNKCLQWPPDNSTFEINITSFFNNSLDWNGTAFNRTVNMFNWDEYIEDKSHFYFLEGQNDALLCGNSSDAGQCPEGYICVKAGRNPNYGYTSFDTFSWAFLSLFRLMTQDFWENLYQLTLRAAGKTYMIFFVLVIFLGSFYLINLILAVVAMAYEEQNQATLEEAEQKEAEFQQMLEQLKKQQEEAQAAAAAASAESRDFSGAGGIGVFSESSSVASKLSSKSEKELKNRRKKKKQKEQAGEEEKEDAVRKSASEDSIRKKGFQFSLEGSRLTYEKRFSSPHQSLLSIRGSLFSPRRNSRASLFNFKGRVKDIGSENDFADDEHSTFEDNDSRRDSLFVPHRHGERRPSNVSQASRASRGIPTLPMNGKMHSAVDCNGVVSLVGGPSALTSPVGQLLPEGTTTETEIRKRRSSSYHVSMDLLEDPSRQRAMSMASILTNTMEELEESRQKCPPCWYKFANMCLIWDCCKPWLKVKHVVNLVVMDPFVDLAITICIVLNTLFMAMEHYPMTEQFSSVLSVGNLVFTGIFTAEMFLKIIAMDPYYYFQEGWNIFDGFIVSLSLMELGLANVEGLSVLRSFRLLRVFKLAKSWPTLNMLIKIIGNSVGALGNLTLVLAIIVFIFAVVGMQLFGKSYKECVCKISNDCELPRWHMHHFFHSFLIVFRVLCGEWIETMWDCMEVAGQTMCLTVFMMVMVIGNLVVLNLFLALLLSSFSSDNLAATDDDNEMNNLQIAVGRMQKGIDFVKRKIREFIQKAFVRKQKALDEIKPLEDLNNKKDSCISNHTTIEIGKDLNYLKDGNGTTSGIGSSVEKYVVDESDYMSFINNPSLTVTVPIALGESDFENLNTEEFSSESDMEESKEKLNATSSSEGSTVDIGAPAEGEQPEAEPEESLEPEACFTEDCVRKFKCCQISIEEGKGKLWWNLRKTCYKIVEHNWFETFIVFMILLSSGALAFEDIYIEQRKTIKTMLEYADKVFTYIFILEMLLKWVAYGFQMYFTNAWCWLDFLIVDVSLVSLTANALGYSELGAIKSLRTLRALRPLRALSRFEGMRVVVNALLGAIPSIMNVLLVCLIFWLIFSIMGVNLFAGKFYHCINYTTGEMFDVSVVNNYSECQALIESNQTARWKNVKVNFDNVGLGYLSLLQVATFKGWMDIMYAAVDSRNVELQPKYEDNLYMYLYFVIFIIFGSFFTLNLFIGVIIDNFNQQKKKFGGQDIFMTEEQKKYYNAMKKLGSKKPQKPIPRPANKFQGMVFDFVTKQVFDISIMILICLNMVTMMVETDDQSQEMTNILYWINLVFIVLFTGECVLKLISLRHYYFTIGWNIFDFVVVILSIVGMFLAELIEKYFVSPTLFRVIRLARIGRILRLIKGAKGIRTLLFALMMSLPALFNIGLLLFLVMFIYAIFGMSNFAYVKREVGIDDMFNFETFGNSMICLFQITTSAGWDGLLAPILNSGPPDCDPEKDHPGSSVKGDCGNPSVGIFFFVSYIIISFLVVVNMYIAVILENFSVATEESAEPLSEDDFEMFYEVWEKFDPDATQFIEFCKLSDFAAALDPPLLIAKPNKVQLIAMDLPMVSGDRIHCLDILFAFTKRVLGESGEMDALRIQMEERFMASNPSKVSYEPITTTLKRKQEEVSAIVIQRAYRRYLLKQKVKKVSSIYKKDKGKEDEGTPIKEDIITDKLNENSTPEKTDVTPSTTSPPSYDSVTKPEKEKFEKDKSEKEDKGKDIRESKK
# Molecular target: T1, rNav1.2 α-subunit (Rattus norvegicus, UniProt P04775)
# T1 construct: host or cells: CHL 1610 (Chinese hamster lung)
# Type: cell-based
# Conditions: read-out: IC50, inhibition of ATX-induced sodium influx (95% CI)
smiles,measurement,value
"NC1=N[C@H](O)[C@H]2[C@H]3O[C@]4(O)O[C@@H]([C@@H](O)[C@@]2(N1)[C@@H]4O)[C@]3(O)CO [TTX, tetrodotoxin, reference compound]",IC50,14.8 nM
